Experimental findings from patent US11731934B2, “HDAC inhibitor compounds and methods of treatment” (University of Florida Research Foundation, Inc., priority 2014, dated 2023) are described below.

Assay [1] has as its system Ad-MLP-Luc reporter in HCT116 cell line. Description: Ad-MLP-Luc luciferase reporter activation assay. The format is cell-based. Conditions: HCT116, compared to Ad-E2-Luc reporter. Background: In a reporter assay the amount or activity of a reporter protein is the signal.
Assay [2] relates to MDA-MB-231 cells. Conditions: UF010 at 1 μM.
Another assay deals with HCT116 cells. Nature of the assay: H3K18ac after 6 h pulse treatment and drug washout. The format is cell-based. The following applies: 6 h exposure then washout.
Assay [3] has as its system MDA-MB-231 cells. Description: Cell cycle analysis by FACS. The format is cell-based. The following applies: 24 h. (In general: A flow cytometer gives signals particle by particle.)

For the molecule `O=C(CCCCCCC(=O)Nc1ccccc1)NO` [SAHA, vorinostat], in assay [1], the Ad-MLP-Luc reporter activity result was “dramatically increased in a dose-dependent manner”. Further, in the assay with MDA-MB-231 cells [2], the “Cell migration to the denuded areas” value is listed as “did not significantly affect this phenotype”. For the same molecule, the “Persistence of induced histone acetylation (H3K18ac) after drug addition” value with HCT116 cells is recorded as “quickly reduced to normal levels upon the drug removal”. Besides, the “Time to induction of histone acetylation (H3K18ac)” value in the assay with HCT116 cells is given as ≤ 6 h. Besides, the Cell cycle effect result in the assay with MDA-MB-231 cells [3] (1 μM) is given as “inhibited G1/S progression”; in the assay on MDA-MB-231 cells [3] (10 μM) it was “induced a strong G2/M block”.
